Ab-14 light chain CDR variants: yeast mating affinities

Binding partner: SARS-CoV-2 spike HR2 peptide, sequence PDVDLGDISGINAS.

Parent scFv Ab-14: VH joined to VL by a 15-residue (Gly4Ser)3 linker. Changes lie in the light chain CDRs alone.
VH: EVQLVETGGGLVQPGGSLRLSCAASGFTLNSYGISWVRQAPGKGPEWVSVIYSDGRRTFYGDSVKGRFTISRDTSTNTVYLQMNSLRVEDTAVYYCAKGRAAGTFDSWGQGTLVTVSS
VL: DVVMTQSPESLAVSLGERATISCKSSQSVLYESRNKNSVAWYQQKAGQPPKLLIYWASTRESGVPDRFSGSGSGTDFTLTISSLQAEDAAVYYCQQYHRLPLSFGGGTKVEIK

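The library (AAYL50) carries one to three amino acid substitutions per variant, with no insertions or deletions. In AlphaSeq, yeast of one mating type display the scFv and yeast of the other type display the target. Mating (16 h, 30 °C) was followed by selection of diploids and sequencing of their barcodes. Read counts were normalised to the haploid input and turned into Kd by a linear fit to BCL2-family pairs of known affinity, for each replicate. Each pool was mated in three replicate cultures.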

Changes read parent residue, position, new residue, counted from the first residue of the VL shown.
Affinities are written as log10 Kd with Kd in nM; a lower number is a better binder.
A pair that was not seen in that replicate is written "n.d."; this usually means weak binding, but a binder can also be missed.
Parent in this assay: reference entry 0.65, copy in this library 1.68.
Nonspecific signal, from three strains lacking the peptide, appeared in 18% of pairings of library AAYL50, centred on 4.19 (5% of these signals below 2.99); values are not corrected for it. For each scFv, signals with the empty controls are counted beside the result, with their mean in brackets.

| changes | log10 Kd, replicates | signal with controls |
|---|---|---|
| S28K+Q95F+S103C | 1.82 2.16 2.28 | 4 of 9 (4.80) |
| S25I+A57K+E61Y | 0.76 0.96 0.87 | 3 of 9 (4.01) |
| V39L+Q96L | 1.43 1.34 1.98 | 0 of 9 |
| Q27A+V29E+W56L | 0.61 0.81 0.74 | 5 of 9 (5.32) |
| S26Q+S62N+Q95A | 1.74 2.38 2.42 | 0 of 9 |
| S25K+A57W+R99H | n.d. n.d. 2.81 | 0 of 9 |
| S33R+T59G+S62N | n.d. n.d. n.d. | 0 of 9 |
| V39F+S58Q+Q95T | n.d. n.d. n.d. | 1 of 9 (5.37) |
| K24R+R34Y+R60K | 0.94 1.51 1.11 | 4 of 9 (3.92) |
| S26L+H98A+L100A | n.d. n.d. n.d. | 2 of 9 (3.14) |
| Q27F+N35T+Y97I | n.d. n.d. n.d. | 1 of 9 (2.62) |
| K24Q+H98I+R99G | 1.99 1.82 2.36 | 2 of 9 (4.46) |
| R34V | 0.25 0.83 0.60 | 2 of 9 (3.23) |
| W56E+R60G+S103I | 1.50 1.49 1.58 | 8 of 9 (3.95) |
| S25T+T59N+H98W | 0.75 0.96 0.88 | 0 of 9 |
| Q27K+A57K+L100N | 2.81 n.d. n.d. | 1 of 9 (4.27) |
| S58Q+E61C | 1.30 1.28 1.38 | 0 of 9 |
| T59G+S62L+Q96P | n.d. 3.57 4.36 | 4 of 9 (3.80) |
| K36I+A57M+T59H | n.d. n.d. n.d. | 2 of 9 (3.16) |
| R60T+S62Y+S103I | n.d. n.d. n.d. | 0 of 9 |
| S26R+R34C+A40C | n.d. n.d. n.d. | 0 of 9 |
| S28C+A57G+E61P | 2.89 n.d. n.d. | 0 of 9 |
| Y31S+E61F+R99Y | 3.27 2.51 2.54 | 2 of 9 (4.05) |
| Y31F+Y97N | 1.62 1.80 1.67 | 4 of 9 (5.21) |
| R34D+E61C | -0.14 0.08 0.00 | 0 of 9 |
| E61G+Y97L+R99V | n.d. n.d. n.d. | 0 of 9 |
| E32P+W56T+E61N | 1.79 0.97 0.83 | 0 of 9 |
| K24C+R34H+N35C | 2.49 2.21 2.95 | 2 of 9 (4.05) |
| E32R+S38C+L102P | 4.21 5.09 n.d. | 1 of 9 (5.10) |
| V29R+Y31F+R60S | n.d. n.d. n.d. | 2 of 9 (4.31) |
| S25I+Q27I+L30I | 3.77 3.36 3.80 | 5 of 9 (4.88) |
| L30T+N37Y+A57M | 1.68 1.71 1.90 | 0 of 9 |
| S26R+Y31R+P101M | n.d. n.d. 3.59 | 0 of 9 |
| S28Y+V39G+R99H | n.d. n.d. 4.78 | 1 of 9 (4.01) |
| V29P+L30I+P101V | 0.26 0.39 0.33 | 0 of 9 |
| S26Y+Y31G+A40K | n.d. n.d. n.d. | 1 of 9 (2.54) |
| E32P+S58E+R60E | n.d. n.d. 4.89 | 0 of 9 |
| K24V+N35G+N37T | 2.91 2.60 2.74 | 4 of 9 (4.43) |

Repeated from above, the 6 best binders with a signal in all replicates:

changes	log10 Kd, replicates	signal with controls
R34D+E61C	-0.14 0.08 0.00	0 of 9
V29P+L30I+P101V	0.26 0.39 0.33	0 of 9
R34V	0.25 0.83 0.60	2 of 9 (3.23)
Q27A+V29E+W56L	0.61 0.81 0.74	5 of 9 (5.32)
S25I+A57K+E61Y	0.76 0.96 0.87	3 of 9 (4.01)
S25T+T59N+H98W	0.75 0.96 0.88	0 of 9

Source: Engelhart et al. 2022 (doi:10.1038/s41597-022-01779-4), MIT Lincoln Laboratory and A-Alpha Bio; data file from the FLAb repository.